By UniProt entry, the sequences of proteins in these tests, tags left out.
UniProt P08684, whole entry: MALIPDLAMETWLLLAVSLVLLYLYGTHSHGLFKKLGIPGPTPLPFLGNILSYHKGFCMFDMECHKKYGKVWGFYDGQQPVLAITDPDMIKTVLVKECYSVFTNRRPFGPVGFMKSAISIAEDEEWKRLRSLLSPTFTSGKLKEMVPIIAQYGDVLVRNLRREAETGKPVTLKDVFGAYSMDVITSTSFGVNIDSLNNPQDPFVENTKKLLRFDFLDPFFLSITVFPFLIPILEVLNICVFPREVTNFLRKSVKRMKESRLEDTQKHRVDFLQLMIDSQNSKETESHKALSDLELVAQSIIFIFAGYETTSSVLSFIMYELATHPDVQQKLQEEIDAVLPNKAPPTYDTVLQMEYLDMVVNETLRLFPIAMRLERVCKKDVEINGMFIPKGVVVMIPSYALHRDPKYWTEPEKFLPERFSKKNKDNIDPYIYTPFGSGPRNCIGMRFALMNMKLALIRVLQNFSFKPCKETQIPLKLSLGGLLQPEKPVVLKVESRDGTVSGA

According to article PMC11094663 (Journal of ethnopharmacology, 2022):

Experiments:
[1] = target: CYP3A4 (Homo sapiens, UniProt P08684); experiment: Cytochrome P450
[2] = target: T1, pregnane X receptor (PXR) (Homo sapiens, UniProt O75469); assay type: cell-based
T1 sequence (O75469 1-434): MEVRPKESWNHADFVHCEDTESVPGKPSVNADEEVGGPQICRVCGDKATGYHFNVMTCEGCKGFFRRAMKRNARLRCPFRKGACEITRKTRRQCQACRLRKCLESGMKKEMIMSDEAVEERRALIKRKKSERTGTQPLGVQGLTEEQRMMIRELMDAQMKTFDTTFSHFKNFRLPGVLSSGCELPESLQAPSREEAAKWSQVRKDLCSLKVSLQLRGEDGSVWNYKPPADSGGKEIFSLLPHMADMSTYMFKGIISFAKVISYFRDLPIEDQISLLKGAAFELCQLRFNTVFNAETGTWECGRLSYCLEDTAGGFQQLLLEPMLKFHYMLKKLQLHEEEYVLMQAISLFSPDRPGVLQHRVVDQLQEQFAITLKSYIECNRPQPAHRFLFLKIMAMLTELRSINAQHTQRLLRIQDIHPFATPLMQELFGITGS

Row | SMILES | IC50 [1] | fold induction at 24 h, 12.5 μg/mL [2] | fold induction at 24 h, 25 μg/mL [2] | fold induction at 24 h, 50 μg/mL [2]
1 | COc1cc2c(cc1O)CC[n+]1cc3c(OC)c(OC)ccc3cc1-2 [Jatrorrhizine] | 28.1 µM | 1.48 ± 0.01 | 1.94 ± 0.04 | 2.44 ± 0.05
2 | COc1ccc2c(c1O)-c1c(O)c(OC)cc3c1[C@H](C2)[N+](C)(C)CC3 [Magnoflorine] | 105 µM | 1.01 ± 0.15 | 1.16 ± 0.15 | 1.41 ± 0.12
